From patent US20100143381A1, “LYSOPHOSPHATIDIC ACID RECEPTOR TARGETING FOR LUNG DISEASE” (priority 2007, published 2010)

Tested on: primary lung fibroblasts
Experiment: Fibroblast chemotaxis induced by albumin alone
Type: cell-based, mouse
Conditions: FIG. 9a
Protocol: After being serum-starved in DMEM without FBS overnight, subconfluent primary lung fibroblasts were harvested with non-enzymatic Cell Dissociation Solution (Sigma) to avoid possible proteolysis of surface chemoattractant receptors by trypsin. Harvested cells, at 5.0×10^5 cells/ml in 50 μl of DMEM, were placed in the top of a 48-well modified Boyden microchemotaxis chamber (NeuroProbe). Duplicate 30 μl aliquots of either: i) 18:1 LPA (Avanti Polar Lipids) or PDGF-BB (R&D Systems) in DMEM with 0.1% fatty acid-free bovine serum albumin (Sigma); or ii) BAL, or BAL fractions, diluted 1:4 in DMEM, were placed in the bottom wells of the chamber and separated from the cells by a 8-μm-pore, polyvinylpyrrolidone-free polycarbonate filter (Osmonics) that had been coated with fibronectin (Sigma). The apparatus was incubated at 37° C. and 5% CO2 for 3 hours, and cells migrating across the filter and adhering to the bottom side of the filter were stained with a commercially modified Wright's stain (Hema 3 stain set, Fisher Diagnostics) and counted, after cells remaining on the top side of the filter had been scraped off. Data from these experiments is presented as chemotactic indices, i.e. the number of cells migrating in response to BAL divided by the number of cells migrating to media controls.

Substance | induction of fibroblast chemotaxis by albumin alone | induction of fibroblast chemotaxis by albumin alone (listed as methanol-extracted fatty acid-free albumin)
methanol-extracted fatty acid-free mouse serum albumin: methanol-extracted fatty acid-free mouse serum albumin (MSA) | did not induce chemotaxis | did not induce fibroblast chemotaxis
nonextracted MSA: mouse serum albumin that has not had bound lipids extracted | did | 
